Test results: paper PMC11847841, “The development and evaluation of a tublysine-based antibody-drug conjugate with enhanced tumor therapeutic efficacy” (Frontiers in Pharmacology, 2025)

Key:
[1] = Acute toxicity study in ICR mice; type: in vivo
Protocol: The study was terminated after 12 days of dosing. Body weights were monitored daily. The serum enzyme activities of AST and ALT were measured on day 5 and 12 after dosing. Half of the mice in each group (n = 5) were euthanized on day 5 and 12. The hearts, livers, spleens, lungs, kidneys and brains were collected and weighed. Pathological examinations using hematoxylin and eosin (HE) staining were conducted on selected organs and tissues, particularly those showing significant weight changes or macroscopic abnormalities, such as the livers.

[2] = Kadcyla 60 mg/kg single dose, rat; ref Poon et al., 2013; cited from earlier work
[3] = cited from earlier work

With ado-trastuzumab emtansine [Kadcyla] the “Maximal body weight reduction” value ([1]; 75 mg/kg single i.v. (Kadcyla: day 4)) was −9.3%, the “Hepatic pathological findings (H&E)” value ([1]; 75 mg/kg, day 5) was “swelling of hepatocytes” and the “Increase of liver/brain weights” value ([1]; 75 mg/kg, day 5) was 22.6%. For the same substance, the “Increase of serum ALT activity” value ([1]; 75 mg/kg, day 5) was 4.6 fold, the “Increase of serum AST activity” value ([1]; 75 mg/kg, day 5) was 8.8 fold and the “Hepatic pathological findings (H&E)” value ([1]; 75 mg/kg, day 12) was “mildly swollen hepatocytes, vacuolization around the nucleus, and numerous inflammatory cells surrounding the bile tubules and portal venules”. The “Increase of liver/brain weights” value ([1]; 75 mg/kg, day 12) was 35.7%, the “Increase of serum ALT activity” value ([1]; 75 mg/kg, day 12) was 9.4 fold and the “Increase of serum AST activity” value ([1]; 75 mg/kg, day 12) was 3.1 fold. For the same substance, the “Maximal body weight reduction” value ([1]; 150 mg/kg single i.v. (Kadcyla: day 5)) was −14.3%, the “Hepatic pathological findings (H&E)” value ([1]; 150 mg/kg, day 5) was “focal necrosis, vacuolar degeneration of hepatocytes, and infiltration of inflammatory cells” and the “Increase of liver/brain weights” value ([1]; 150 mg/kg, day 5) was 0%. For the same substance, the “Increase of serum ALT activity” value ([1]; 150 mg/kg, day 5) was 5.8 fold, the “Increase of serum AST activity” value ([1]; 150 mg/kg, day 5) was 20.8 fold and the “Hepatic pathological findings (H&E)” value ([1]; 150 mg/kg, day 12) was “focal necrosis with infiltration of many inflammatory cells, vacuolar degeneration of hepatocytes, and Kupffer’s cell hypertrophy”. The “Increase of liver/brain weights” value ([1]; 150 mg/kg, day 12) was 96.4%, the “Increase of serum ALT activity” value ([1]; 150 mg/kg, day 12) was 14.3 fold and the “Increase of serum AST activity” value ([1]; 150 mg/kg, day 12) was 5.5 fold. The “Survival at the end of the study period” value ([1]; single i.v. 75 or 150 mg/kg, 12 days) was “All the test animals survived”, the “Outcome of single-dose regimen” value [2] was “animal death” and the “Maximum tolerated dose (MTD)” value ([3]; every 3 weeks (Q3W), ref Krop et al., 2010, Lambert and Chari, 2014, de Goeij and Lambert, 2016) was 3.6 mg/kg. For the same substance, the ILD/pneumonitis incidence ([3]; ref Montemurro et al., 2019) was “approximately 1%”.
